Sequences of proteins named here, by UniProt entry; tags and fusion partners are left off. A change or cut given only in a name is not applied to a line headed by its entry.
UniProt P20292: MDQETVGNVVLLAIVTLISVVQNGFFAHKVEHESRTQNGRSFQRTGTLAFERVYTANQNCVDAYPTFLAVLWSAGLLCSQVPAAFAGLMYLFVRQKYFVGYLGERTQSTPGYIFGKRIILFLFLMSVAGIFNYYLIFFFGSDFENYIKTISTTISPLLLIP

In patent US9089569B2, “1,2,6-substituted benzimidazoles as flap modulators” (JANSSEN PHARMACEUTICA NV, priority 2013, dated 2015):

Biological target: human FLAP (Homo sapiens (Human), UniProt P20292)
Test: FLAP binding assay (HTRF)
Settings: wild type FLAP-containing membranes, HTRF format

Ki [nM]	SMILES
~2500	Cn1ccc(COc2ccc3nc([C@@H]4CCCC[C@@H]4C(=O)O)n(Cc4ccc(OC(F)(F)F)cc4)c3c2)n1 (relative stereo) [Example 45, (1R*,2S*)-2-{6-[(1-Methyl-1H-pyrazol-3-yl)methoxy]-1-[4-(trifluoromethoxy)benzyl]-1H-benzimidazol-2-yl}cyclohexanecarboxylic acid]
~1790	Cc1ccc(COc2ccc3nc([C@H]4[C@@H](C(=O)O)C4(C)C)n(Cc4ccc(Br)cc4)c3c2)nc1 (relative stereo) [Example 113, (1R*,3S*)-3-{1-(4-Bromobenzyl)-6-[(5-methylpyridin-2-yl)methoxy]-1H-benzimidazol-2-yl}-2,2-dimethylcyclopropanecarboxylic acid]
23	Cc1ccc(COc2cc(F)c3nc([C@@H]4[C@H](C(=O)O)C4(C)C)n(Cc4ccc(Br)cc4)c3c2)nc1 (racemic) [Example 63, racemic cis-3-{1-(4-Bromobenzyl)-4-fluoro-6-[(5-methylpyridin-2-yl)methoxy]-1H-benzimidazol-2-yl}-2,2-dimethylcyclopropanecarboxylic acid]
